Biological target: Cannabinoid receptor 1 (Homo sapiens, UniProt P21554)
Assay: biochemical
Format: cell-based, HEK293

Chains of the proteins cited; added tags and fusions are not shown.
UniProt P21554, whole entry: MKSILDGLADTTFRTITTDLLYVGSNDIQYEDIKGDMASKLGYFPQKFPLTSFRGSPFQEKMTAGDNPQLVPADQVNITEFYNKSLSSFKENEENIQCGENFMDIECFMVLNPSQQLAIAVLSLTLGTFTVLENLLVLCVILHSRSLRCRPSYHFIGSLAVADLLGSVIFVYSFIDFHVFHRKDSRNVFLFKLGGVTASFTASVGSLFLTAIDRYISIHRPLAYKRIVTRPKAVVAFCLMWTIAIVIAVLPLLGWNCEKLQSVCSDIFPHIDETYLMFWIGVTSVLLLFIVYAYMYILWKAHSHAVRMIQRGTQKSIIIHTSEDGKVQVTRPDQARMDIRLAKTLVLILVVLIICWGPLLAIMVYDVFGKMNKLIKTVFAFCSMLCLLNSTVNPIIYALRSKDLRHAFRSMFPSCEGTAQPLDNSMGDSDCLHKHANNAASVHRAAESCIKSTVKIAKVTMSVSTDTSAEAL

Cc1ccc(Cn2nc(C(=O)N[C@@H]3C(C)(C)[C@@H]4CC[C@@]3(C)C4)cc2-c2ccc(Cl)c(C)c2)cc1 [SR-144528]
Ki: > 5 µM

— ChEMBL document CHEMBL1140571, “New 1,8-naphthyridine and quinoline derivatives as CB2 selective agonists” (Bioorg Med Chem Lett, 2007)
